Results: EP1435941B1 (ARIZONA BOARD OF REGENTS on behalf of THE UNIVERSITY OF …, priority 2001, dated 2003)

System: C57BL6 mice
Conditions: percent decrease in lymphocyte counts at the MTD or highest dose tested, wortmannin as 1.0

COC[C@H]1OC(=O)C(=CN(C)Cc2ccccc2)C2=C(O)C(=O)C3=C([C@H](OC(C)=O)C[C@]4(C)C(=O)CC[C@@H]34)[C@]21C [DJM2-181, Acetic acid 4-[(benzylmethylamino)methylene]-6-hydroxy-1α-methoxymethyl-10β,13β-dimethyl-3,7,17-trioxo-1,3,4,7,10,11β,12,13, 14α,15,16,17-dodecahydro-2-oxa-cyclopenca[a]phenanthren-11-yl ester]
Lymphocyte toxicity relative to wortmannin: 1.9
